Screens: PubChem BioAssay, National Center for Advancing Translational Sciences (NCATS)
Compounds with a hit are over-represented: about 3.7% of the library has one in this group of screens.
ClpP mod – qHTS Assay for Activators of ClpP | ATP-dependent Clp protease proteolytic subunit (Bacillus subtilis (strain 168)), P80244 | purified B. subtilis ClpP, FRET peptide cleavage, 20 min | Potency, µM (top dose mostly 57.5 µM), without a hit: top-dose activity change, negative = active | actives 1.9% (n = 340,000); active means well fitted falling curve with a large enough effect; inconclusive means small, poorly fitted or top-dose-only effect; inactive means no such curve, though single readings can be large or run the other way; further: potency means the concentration at half of the fitted maximal effect; the source files actives as falling curves though it sought activators and does not explain the sign; nearly all actives have a fitted effect of over 65% in size
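ClpP 10 microg/mL final, pH 8 Tris/KCl buffer with BSA, glycerol, Tween-20; compound pinned in; FRET-FV substrate; RT 20 min; Ex320/Em430; ΔFRET vs ADEP 5.8 microM, DMSO, no enzyme.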
Nrf2 activator – activators of Nrf2 (ARE) signaling; AREc32 ARE-luciferase reporter (MCF7-derived line), luminescence, 24 h; Potency, µM (top dose mostly 46.1 µM), for the others: at the highest dose activation, most hits filed as activators; actives 0.31% (n = 410,000); AID 624171; further: potency means the concentration at half of the fitted maximal effect; % of control where 0% means no effect; nearly all actives have a fitted effect of over 65% in size
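Nrf2 activation is followed as ARE-luciferase induction in the AREc32 line after one day of compound treatment; luminescence is read with Steady-Glo.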
Nrf2 inh – inhibitors of Nrf2 signaling; A549 ARE-Fluc reporter, luciferase luminescence, 18-24 h; Potency, µM (series often up to 46 µM), inactives show at the highest dose activity change, negative = inhibition, actives largely listed as inhibitors; actives 2.1% (n = 360,000); AID 504444; further: potency means the concentration at half of the fitted maximal effect; on the % scale 0 is the no-effect control and ±100 the full control effect; nearly all actives have a fitted effect of over 60% in size
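Concentration-response testing used A549 ARE_Fluc cells at 5000 cells/well. Following an 18-24 h compound incubation, viability was read by fluorescence (Ex 405/Em 525) and luciferase output by luminescence.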
miR-21 reporter – miR-21 reporter, rising signal; Potency, µM (top dose mostly 38.3 µM), for the others: at the highest dose reporter change, positive = more light; 340,000 tested, under 10 active; HeLa miR-21 FLuc reporter, luciferase, 48 h; active = well fitted rising curve with a large enough effect; inconclusive = small, poorly fitted or top-dose-only effect; inactive = no such curve, though single readings can be large or run the other way;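 note: % of control where 0% means no effect; miR-21 action dims this reporter so a rising signal means less miR-21 action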
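HeLa cells endogenously expressing miR-21, stably carrying CMV-driven firefly luciferase with a downstream miR-21 binding site, 2000 cells/well. Titrations up to approximately 40 uM, 48 hours; luciferase luminescence read.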
TCR activator – T cell receptor activation | primary human leukocytes, anti-CD3, IL-2 HTRF, 48 h | Potency, µM (titrated, usually from 9.22 µM), without a hit: at the top dose activation of IL-2 secretion, actives largely listed as activators | 330,000 tested, under 10 active | AID 504894; further: % of control where 0% means no effect
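48 hr co-incubation of compounds, a-CD3 beads and primary human leukocytes; IL-2 quantified homogeneously by HTRF with anti-IL-2 K and d2 conjugates.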
A549 viability – kills or reduces viability of A549 cells in Nrf2 counter-screen. actives 0.16% (n = 390,000). Potency, µM (top dose mostly 46 µM), without a hit: top-dose activity change, negative = cytotoxicity, hits mostly inhibitors. A549 ARE-Fluc cells, CellTiter-Fluor viability, 18-24 h; further: potency means the concentration at half of the fitted maximal effect; on the % scale 0 is the no-effect control and ±100 the full control effect
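A549 ARE_Fluc cells in 5% FBS OPTI-MEM were exposed to compounds in concentration-response for 18-24 h at 37 deg C. Viability was read by CellTiter-Fluor fluorescence (Ex 405/Em 525) after 30 min, before the luciferase read.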
Active calls of the source: *; ? = inconclusive; . = no result given; [ ] = remark or other dose. Unless noted, the call rests on the fitted dose curve; in most records, active means well fitted curve in the direction sought with a large enough effect; inconclusive means small, poorly fitted or top-dose-only effect, or another doubt; inactive means no such curve, though single readings can be large; an effect the other way counts as inactive or inconclusive.

Below each compound – ClpP mod	Nrf2 activator	Nrf2 inh	miR-21 reporter	TCR activator	A549 viability
1. Cc1ccc(Nc2nc(C#N)nc(NC3CCCC3)n2)cc1
  .	.	18%	.	.	-1%
2. CC[N+](C)(C)CCN(Cc1ccc(Cl)cc1)c1ccccn1
  28µM*	0%	?	11%	3%	-9%
3. CCS(=O)(=O)N1Cc2ccccc2CC1C(=O)NCCc1ccccc1 (centres undefined)
  .	4%	12%	-13%	-1%	3%
4. COc1ccc(S(=O)(=O)N2CCN(CCc3ccccc3)CC2)c(OC)c1
  .	-1%	16µM*	22%	1%	-8%
5. COc1ccc(OC)c(S(=O)(=O)N2CCN(Cc3ccccc3)CC2)c1
  0%	0%	3%	-4%	3%	2%
6. Cc1c(CCO)c(=O)n2c([nH]c3ccccc32)c1C#N
  4%	7%	-15%	2%	-2%	-9%
7. Cc1c(CCC(C)C)c(=O)n2c([nH]c3ccccc32)c1C#N
  3.2µM*	0%	?	-6%	1%	-9%
8. CCCCc1c(C)c(C#N)c2[nH]c3ccccc3n2c1=O
  ?	3%	18µM*	4%	9%	?
9. CCc1ccccc1N=Cc1c(C)c(C#N)c2[nH]c3ccccc3n2c1=O
  -2%	0%	0%	.	10%	-13%
10. CCCc1cc(=O)n2c([nH]c3ccccc32)c1C#N
  13%	0%	15µM*	-16%	2%	-24%

Fetched one by one from the list above:
Below each compound – ClpP mod	Nrf2 activator	Nrf2 inh	miR-21 reporter	TCR activator	A549 viability
3. CCS(=O)(=O)N1Cc2ccccc2CC1C(=O)NCCc1ccccc1 (centres undefined)
  .	4%	12%	-13%	-1%	3%
6. Cc1c(CCO)c(=O)n2c([nH]c3ccccc32)c1C#N
  4%	7%	-15%	2%	-2%	-9%
1. Cc1ccc(Nc2nc(C#N)nc(NC3CCCC3)n2)cc1
  .	.	18%	.	.	-1%
10. CCCc1cc(=O)n2c([nH]c3ccccc32)c1C#N
  13%	0%	15µM*	-16%	2%	-24%
7. Cc1c(CCC(C)C)c(=O)n2c([nH]c3ccccc32)c1C#N
  3.2µM*	0%	?	-6%	1%	-9%

More results follow:
Below each compound – ClpP mod	Nrf2 activator	Nrf2 inh	miR-21 reporter	TCR activator	A549 viability
11. CC1CN(C(=O)NCc2ccccc2)c2cc(Cl)ccc2O1 (centres undefined)
  -1%	1%	4%	-1%	-1%	0%
12. O=C(NCc1ccccc1)C1C(=O)Nc2ccccc2C(=O)N1c1ccc2c(c1)OCCO2 (centres undefined)
  -11%	.	.	.	.	.
13. [S-]C(=Nc1ccc(Cl)cc1)N[n+]1ccccc1
  28µM*	6%	-6%	-2%	2%[46.1 µM]	0%
14. ONC(=Nc1ccc(Cl)cc1)c1ccc(Cl)cc1
  -2%	2%	7%	-17%	-3%	-2%
15. COc1ccc(-c2nn(-c3cccc([N+](=O)[O-])c3)c3c2cnc2cc4c(cc23)OCO4)cc1
  -2%	-1%	.	-4%	.	2%
16. COc1cc2nc(CN3CCN(S(=O)(=O)c4ccc(Cl)cc4)CC3)[nH]c(=O)c2cc1OC
  0%	1%	23µM*	23%	-2%	-9%
17. O=[N+]([O-])c1cc([N+](=O)[O-])c2c(=Nc3ccccc3)n(-c3ccccc3)n(O)c2c1
  .	14µM*	-11%	16%	-3%	-22%
18. O=[N+]([O-])c1cc(Br)c(Nc2ccccc2)c([N+](=O)[O-])c1
  1%	-4%	?	20%	4%	-21%
19. C#CCOc1ccc2ccccc2c1/C=C(/C#N)c1ccc(C(=O)O)cc1
  -1%	4%	-3%	-1%	5%	0%
20. Cc1ccc(CSc2cn(CC(=O)N3CCCCCC3)c3ccccc23)cc1
  -1%	4%	11%	-1%	.	4%

Below each compound – ClpP mod	Nrf2 activator	Nrf2 inh	miR-21 reporter	TCR activator	A549 viability
21. CN1C(=O)c2ccccc2N(C)C1c1ccc2c(c1)OCO2 (centres undefined)
  25µM*	0%	.	-2%	0%	5%
22. CN1C(=O)c2ccccc2N(C)C1c1ccc(F)cc1 (centres undefined)
  0%	0%	-16%	3%	5%	-2%
23. Oc1ccc(Br)cc1C=Nc1ccc2c3c(cccc13)CC2
  32µM*	3%	15%	-4%	-1%[46.1 µM]	-1%
24. c1ccc(N=NC2=NN(c3ccccc3)CS2)cc1
  3%	8.9µM*	.	.	.	.
25. c1ccc(C2=NN(c3ccccc3)CC2)cc1
  4%	16%	?	-79%	-27%	8%
26. Cc1noc(C(F)(F)F)c1C(=O)NNC(=O)c1ccccc1
  0%	-1%	2%	1%	2%	0%
27. CCCN(C(=O)c1cc2c(s1)-c1c(C)cccc1OC2)c1ccc(OCC)cc1
  -3%	-1%	10%	-2%	.	2%
28. COc1ccc(OC)c(CNC(=O)CCCn2ccc3cc(S(=O)(=O)N4CCCC4)ccc32)c1
  -4%	1%	15µM*	22%	-1%	?
29. COc1ccc(-n2cnnc2SCC(=O)Nc2cc(S(=O)(=O)N3CCCCC3)ccc2C)cc1
  -5%	3%	?	-5%	-5%[46.1 µM]	-12%
30. Cc1cc2nnc(SCC(=O)Nc3cc(S(=O)(=O)N4CCOCC4)ccc3Cl)n2c2ccccc12
  32µM*	0%	?	-5%	10%[46.1 µM]	22%

Below each compound – ClpP mod	Nrf2 activator	Nrf2 inh	miR-21 reporter	TCR activator	A549 viability
31. COc1ccc(S(=O)(=O)N2CCCCC2)cc1NC(=O)c1[nH]c(C)c(C(C)=O)c1C
  -3%	11%	18µM*	.	5%	-1%
32. CC(=O)c1c(C)[nH]c(C(=O)Nc2cc(S(=O)(=O)N3CCCCC3)ccc2C)c1C
  -1%	10%	?	.	-15%	2%
33. COc1cccc(CNC(=O)CCCn2ccc3cc(S(=O)(=O)N4CCCC4)ccc32)c1
  0%	0%	-4%	20%	1%	-2%
34. Cc1ccc(S(=O)(=O)N2CCCCC2)cc1NC(=O)CSc1nncn1-c1ccccc1
  .	2%	18µM*	-2%	9%	-2%
35. CN(CC(=O)Nc1ccc(F)cc1)c1ccc(S(=O)(=O)N2CCCCC2)cc1[N+](=O)[O-]
  5%	0%[9.22 µM]	13µM*	15%	-7%[46.1 µM]	-7%
36. O=S(=O)(c1ccc(Cl)c(NC(=S)Nc2cccc(O)c2)c1)N1CCOCC1
  -2%	4%	6%	-5%	3%[46.1 µM]	-3%
37. COc1ccc(S(=O)(=O)N2CCCCC2)cc1NCC(=O)Nc1ccc(C)cc1
  .	0%	16µM*	22%	-5%	-9%
38. CCN(C(=S)Nc1cc(S(=O)(=O)N2CCOCC2)ccc1Cl)c1cccc2ccccc12
  11µM*	0%[9.22 µM]	-2%	3%	-4%[46.1 µM]	17%
39. CCc1ccc(CNC(=O)Cn2ccc3cc(S(=O)(=O)N4CCCCCC4)ccc32)cc1
  -2%	6%	-26%	0%	.	-13%
40. Cc1ccc(CNC(=O)Cn2ccc3cc(S(=O)(=O)N4CCCCCC4)ccc32)cc1
  -12%	1%	15µM*	8%	-41%	?

Below each compound – ClpP mod	Nrf2 activator	Nrf2 inh	miR-21 reporter	TCR activator	A549 viability
41. CCOC(=O)c1ccc(S(=O)(=O)Nc2ccc(N3CCOCC3)cc2)cc1
  .	5%	?	1%	-3%	2%
42. Cc1oc(-c2ccc(Cl)cc2)nc1CSc1nnc(C)n2c1cc1sccc12
  -3%	3%	?	0%	.	5%
43. NNC(=O)c1ccc(C(=O)N(c2ccccc2)c2ccccc2)cc1
  -29%	.	.	.	.	.
44. COc1ccc(NC(=O)CN2CCCN(S(=O)(=O)c3ccc(Br)cc3)CC2)c(OC)c1
  -3%	3%	21µM*	?	.	18µM*
